The compounds below were run on Ba/F3 cells (IL-3 dependent murine pro-B cell line) (assay: Proliferation assay (MTT), parental Ba/F3 cells). Details: read-out: BaF3, 48 h, drug concentrations 0.005-10 μM.
Work on FC(F)(F)Oc1ccc(Nc2ncnc3c2cnn3Cc2cccnc2)cc1 yielded an IC50 of 2.2 µM.
Oc1cccc(Cn2ncc3c(Nc4ccc(OC(F)(F)F)cc4)ncnc32)c1 showed an IC50 of 6.9 µM.
Fc1cc(Cn2ncc3c(Nc4ccc(OC(F)(F)F)cc4)ncnc32)ccc1C(F)(F)F showed an IC50 of 6.7 µM.

Reference: patent publication US9670214B2, “Small molecule myristate inhibitors of Bcr-abl and methods of use” (DANA-FARBER CANCER INSTITUTE, INC., priority 2007, dated 2017)
